Consider 14 sequences from patent publication US6703362B1, “Random peptides that bind to gastro-intestinal tract (GIT) transport receptors and related methods” (Cytogen Corporation, priority 1997, dated 2004).

A short description of the data set: Preselected phage libraries, rat closed loop: uptake into portal and systemic circulation (oligonucleotide hybridization autoradiograph). Conditions: for transport from the closed loop model into the portal circulation: hSI pool of phages; for transport from the GIT closed loop model into the portal circulation: D2H pool of phages. It is filed as in vivo.
Setting [1] is: HPT1 pool of phages, PAX2 at 4x concentration.

As to “STPPSREAYSRPYSVDSDSDTNAKHSSHNRRLRTRSRPN [PAX2]”, where the note is “HPT1 pool of phages”, the “found in the systemic circulation” value was “found in the portal and systemic circulation”. Moreover, the “found in the portal circulation” value under setting [1] was “found in the portal and systemic circulation”; the “found in the portal circulation” value (hPEPT1 pool of phages) was “found in the portal circulation”.

With “RVGQCTDSDVRRPWARSCAHQGCGAGTRNSHGCITRPLRQASAH [Phage SNi10]”, the “transport from the closed loop model into the portal circulation” value was “transported”.

Regarding “SHSGGMNRAYGDVFRELRDRWNATSHHTRPTPQLPRGPN [Phage SNi28]”, the “transport from the closed loop model into the portal circulation” value was “not transported”.

Take “SARDSGPAEDGSRAVRLNGVENANTRKSSRSNPRGRRHP [Peptide P31]”: where the note is “hPEPT1 pool of phages”, the “found in the portal circulation” value is recorded as “found in the portal circulation” and the “found in the systemic circulation” value was “found in the systemic circulation”.

Consider “RYKHDIGCDAGVDKKSSSVRGGCGAHSSPPRAGRGPRGTMVSRL [DCX8]”, for which the “transport from the GIT closed loop model into the portal circulation” value was “transported”.

For the sequence “SGGEVSSWGRVNDLCARVSWTGCGTARSARTDNKGFLPKHSSLR [Phage SNi45]”, the “transport from the closed loop model into the portal circulation” value is reported as “not transported”.

In the case of “SDSDGDHYGLRGGVRCSLRDRGCGLALSTVHAGPPSFYPKLSSP [Phage SNiAX2]”, the “transport from the closed loop model into the portal circulation” value was “not transported”.

As to “SDHALGTNLRSDNAKEPGDYNCCGNGNSTGRKVFNRRRPSAIPT [HAX42]”, for the setting “HPT1 pool of phages”, the “found in the systemic circulation” value is “found in the portal and systemic circulation”. Further, under setting [1], the “found in the portal circulation” value is “found in the portal and systemic circulation”.

In the case of “SQGSKQCMQYRTGRLTVGSEYGCGMNPARHATPAYPARLLPRYR [DCX11]”, the “transport from the GIT closed loop model into the portal circulation” value is given as “preferably transported”.

Turning to “SPCGGSWGRFMQGGLFGGRTDGCGAHRNRTSASLEPPSSDY [Phage SNi34]”, the “transport from the closed loop model into the portal circulation” value is “transported”.

Consider “RGSTGTAGGERSGVLNLHTRDNASGSGFKPWYPSNRGHK [Peptide 5PAX5]”, for which, under “hPEPT1 pool of phages”, the “found in the portal circulation” value is on record as “not found in the portal blood” and the “found in the systemic circulation” value is reported as “found in the systemic circulation”.

For “SPKLSSVGVMTKVTELPTEGPNAISIPISATLGPRNPLR [Phage SNiAX8]”, the “transport from the closed loop model into the portal circulation” value is recorded as “not transported”.

Turning to “RTTTAKGCLLGSFGVLSGCSFTPTSPPPHLGYPPHSVN [Phage SNiAX6]”, the “transport from the closed loop model into the portal circulation” value was “not transported”.

Take “RGAADQRRGWSENLGLPRVGWDAIAHNSYTFTSRRPRPP [Phage SNi38]”: the “transport from the closed loop model into the portal circulation” value is “transported”.
